Measured values from US20120141540A1.

Experiments:
[1] = target: Cyclosporin A (Tolypocladium inflatum); assay: cell-based or functional assay
[2] = target: Cyclosporin A (Tolypocladium inflatum); assay: centrifugal ultrafiltration (10 kDa cut-off) of a 1:1 protein-drug mixture, CsA measured by HPLC; CsA alone: only 15% in the upper portion

Substance “recombinant N-terminal His-tagged human Cyclophilin A (from UniProt P62937 1-165) (enzyme)” has a CsA binding capacity of RBC dialysed with 20 µM CypA (HPLC) (µg/ml RBC at 100% hematocrit) [1] of 8.9, a CsA binding capacity of RBC dialysed with 40 µM CypA (HPLC) (µg/ml RBC at 100% hematocrit) [1] of 12.2 and a CsA binding capacity of RBC dialysed with 80 µM CypA (HPLC) (µg/ml RBC at 100% hematocrit) [1] of 17. For the same substance, the quantity of drug bound by RBC loaded with 20 µM CypA, times greater than native cells [1] was 1.8 times, the quantity of drug bound by RBC loaded with 20 µM CypA, times greater than un-loaded cells [1] was 3 times and the quantity of drug bound by RBC loaded with 40 µM CypA, times greater than native cells [1] was 2.4 times. It also gave a quantity of drug bound by RBC loaded with 40 µM CypA, times greater than un-loaded cells [1] of 4 times, a quantity of drug bound by RBC loaded with 80 µM CypA, times greater than native cells [1] of 3 times and a quantity of drug bound by RBC loaded with 80 µM CypA, times greater than un-loaded cells [1] of 5 times. For the same substance, the percent of the whole drug recovered in the un-filtered fraction [2] was > 70%.
